The target in this test is Prostaglandin E2 receptor EP4 subtype (Mus musculus, UniProt P32240). Briefly: Binding affinity towards mouse Prostanoid EP4 receptor in CHO cells. The test is classed as cell-based.

The chains behind the UniProt entries cited, without tags or fusion partners. Where a name states a change or a piece, a line headed by the entry shows the natural chain unless it says otherwise.
UniProt P32240: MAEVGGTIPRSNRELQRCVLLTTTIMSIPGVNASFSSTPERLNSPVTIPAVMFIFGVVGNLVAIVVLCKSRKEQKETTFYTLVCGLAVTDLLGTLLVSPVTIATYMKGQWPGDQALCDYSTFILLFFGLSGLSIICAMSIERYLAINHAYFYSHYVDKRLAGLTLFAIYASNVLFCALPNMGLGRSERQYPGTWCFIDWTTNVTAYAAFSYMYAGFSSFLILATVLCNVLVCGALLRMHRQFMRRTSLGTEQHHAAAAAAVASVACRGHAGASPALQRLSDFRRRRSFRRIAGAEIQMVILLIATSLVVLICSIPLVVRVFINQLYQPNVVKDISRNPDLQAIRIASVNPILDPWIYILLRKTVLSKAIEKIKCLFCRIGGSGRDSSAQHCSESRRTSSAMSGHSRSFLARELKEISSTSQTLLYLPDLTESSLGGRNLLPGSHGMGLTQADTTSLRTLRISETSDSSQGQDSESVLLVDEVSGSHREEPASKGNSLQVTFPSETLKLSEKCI

Each structure is given as a SMILES string.

Usually Ki stands for a measure of affinity in units of concentration, obtained from inhibition or displacement.

Take `CCCCC[C@@H](O)/C=C/[C@H]1[C@H](O)CC(=O)[C@@H]1C/C=C\CCCC(=O)O`: affinity was put at a Ki of 3.1 nM. In other words, the single-digit nanomolar range.

The values above are taken from ChEMBL document CHEMBL1133892, “Design and synthesis of a highly selective EP2-receptor agonist” (Bioorg Med Chem Lett, 2001).
